Biological target: T1, rat GHS-receptor (GHR-R) (Rattus norvegicus, UniProt O08725)
T1 construct: A full-length cDNA for rat GHR-R was obtained by RT-PCR; expressed in transfected cells
Experiment: Ca-releasing activity (increase in intracellular calcium) in CHO-GHSR62 cells, FLIPR
Assay type: cell-based
Excerpt: To assay an increase in the intracellular calcium ion concentration (Ca-releasing activity) occurring upon binding of a GH secretagogue (GHS) to GHS-receptor (GHR-R), a cell strain expressing rat GHR-R was created in the following manner. A full-length cDNA for rat GHR-R was obtained by RT-PCR (reverse transcriptase-polymerase chain reaction) where a cDNA derived from rat brain was used as template. From the nucleotide sequence of known rat GHR-R [K. K. Mckee, et al, Molecular Endocrinology 11, 415-423 (1997)], sense and antisense primers consisting of the following nucleotide sequences were synthesized.
The amplified cDNA was ligated to vector pcDNAIII (Invitrogen) to construct expression vector GHSR-pcDNAIII. CHO cells were transformed via the expression vector, and the transformed cells stably expressing GHR-R were selected in a medium containing 1 μg/ml G418. […] A change in the intracellular calcium ion concentration (Ca-releasing activity) was measured by an FLIPR system (Molecular Device). […] Then, the cells were incubated with 4 μM fluorescent Fluo4 (Molecular Probe Co., Ltd) for 1 hour and washed four times with Hank's BSS (Hank's Balanced Salt Solution) containing 20 mM Hepes ([N-2-hydroxyethyl]-piperazine-N-[2-ethanesulfonic acid]) and 2.5 mM probenecid, and the Ca-releasing activity was assayed by adding a sample and measuring a change in the fluorescence. […]

The chains behind the UniProt entries cited, without tags or fusion partners.
UniProt O08725, whole entry: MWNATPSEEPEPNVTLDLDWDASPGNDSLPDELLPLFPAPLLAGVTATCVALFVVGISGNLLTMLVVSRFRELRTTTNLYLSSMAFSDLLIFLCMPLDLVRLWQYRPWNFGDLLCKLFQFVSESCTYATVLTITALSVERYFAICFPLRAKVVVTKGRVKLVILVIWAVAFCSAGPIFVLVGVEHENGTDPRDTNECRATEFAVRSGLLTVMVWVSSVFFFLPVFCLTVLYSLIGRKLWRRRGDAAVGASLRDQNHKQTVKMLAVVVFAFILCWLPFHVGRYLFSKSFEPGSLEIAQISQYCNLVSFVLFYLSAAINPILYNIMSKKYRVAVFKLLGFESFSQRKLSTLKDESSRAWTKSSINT

GHRP-6 [reference compound]
concentration to which CHO-GHSR62 cells responded: 10^−10 to 10^−9 M

From US7385026B1, “Modified ghrelin polypeptides” (priority 1999, dated 2008)
